Results as given in patent publication US7267949B2, “Composition comprising methylphenidate and another drug” (Celltech Pharma Europe Limited, priority 1995, dated 2007).

Protein sequences, listed by entry. Tags and fused reporters are not part of them.
UniProt P11712, whole entry: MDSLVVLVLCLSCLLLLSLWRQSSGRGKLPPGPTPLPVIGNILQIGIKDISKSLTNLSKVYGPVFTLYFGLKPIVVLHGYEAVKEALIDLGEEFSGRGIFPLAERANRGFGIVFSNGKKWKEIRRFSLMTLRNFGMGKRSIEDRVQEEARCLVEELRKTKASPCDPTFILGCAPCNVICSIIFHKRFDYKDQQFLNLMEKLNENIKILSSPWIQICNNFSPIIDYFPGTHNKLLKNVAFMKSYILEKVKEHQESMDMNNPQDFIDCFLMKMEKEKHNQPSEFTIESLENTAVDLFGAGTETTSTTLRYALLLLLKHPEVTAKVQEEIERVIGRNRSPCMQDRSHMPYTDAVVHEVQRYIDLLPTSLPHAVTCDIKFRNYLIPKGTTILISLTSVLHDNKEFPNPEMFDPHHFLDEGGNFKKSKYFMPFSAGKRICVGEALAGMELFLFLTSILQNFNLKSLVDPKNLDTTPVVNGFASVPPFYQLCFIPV

Biological target: P450 Isozyme 2C9 (Homo sapiens, UniProt P11712)
Assay: Tolbutamide hydroxylase activity in human microsome preparations
Conditions: standard inhibitor at 100 μM, human microsomes

Q: For Sulphaphenazole, which “% Inhibition of Enzyme Activity (Tolbutamide hydroxylase, 2C9)” value is on record?
A: The value was >90%.
